The text below walks through data of US20260209272A1 (priority 2022, published 2026).

One series deals with detached potato leaves. Conditions: detached potato leaves treated with peptide plus water, no inoculum; 9 = clean leaves.
For series [1] the following is noted: laboratory conditions.
The subject of series [2] is Phytophthora infestans zoospores.
The conditions of series [3]: plants outdoors, samples 0-16 days, in the presence of Triton, mass spectrometry.

On to RITAQIRL [Peptide V1], for which, in the series with detached potato leaves, the “score (1-9 scale), negative control without Phytophthora infestans inoculation” value was 9.00. In series [1], the “adherence to leaves (rain wash-off)” value was “adhered to the leaves”. Moreover, in series [2] (FIG. 8 photomicrograph of zoospores), the “activity of peptide exposed to direct sunlight for 48 hours” value is “remains active”. Moreover, the “activity after heat and sunlight exposure” value in series [2] (after exposure to 40° C. for 9 days and direct sunlight) is “remained active”. Besides, the “zoospore germination with sun-exposed dried peptide” value in series [2] (dried droplets outdoors 8 days (48 cumulative hours of direct sunlight), re-dissolved with zoospores) was “slight amount of germination”. Further, the “peptide's concentration on the leaves” value in series [3] is “remained relatively stable”.
